Converted amounts (≈) assume the structure as drawn.

One experiment concerns Escherichia coli. Nature of the experiment: Antimicrobial activity against Escherichia coli incubated for 16 to 18 hrs by broth dilution assay. The experiment is classed as functional. To be noted: time 16-18 hrs.
For the next experiment, the system named is Staphylococcus aureus. The experiment is described as follows: Antimicrobial activity against Staphylococcus aureus incubated for 16 to 18 hrs by broth dilution assay. It is filed as functional. The following applies: time 16-18 hrs. On the technique in general: Dilution methods test growth across graded concentrations, often in twofold steps.

For the compound `CC[C@H](C)[C@H](NC(=O)CN)C(=O)NCC(=O)N[C@@H](C)C(=O)N[C@H](C(=O)N[C@@H](CC(C)C)C(=O)N[C@@H](CCCCN)C(=O)N[C@H](C(=O)N[C@@H](CC(C)C)C(=O)N[C@H](C(=O)N[C@H](C(=O)NCC(=O)N[C@@H](CC(C)C)C(=O)N1CCC[C@H]1C(=O)N[C@@H](C)C(=O)N[C@@H](CC(C)C)C(=O)N[C@H](C(=O)N[C@@H](CO)C(=O)N[C@@H](Cc1c[nH]c2ccccc12)C(=O)N[C@H](C(=O)N[C@@H](CCCCN)C(=O)N[C@@H](CCCNC(=N)N)C(=O)N[C@@H](CCCCN)C(=O)N[C@@H](CCCNC(=N)N)C(=O)N[C@@H](CCC(N)=O)C(=O)N[C@@H](CCC(N)=O)C(N)=O)[C@@H](C)CC)[C@@H](C)CC)[C@@H](C)O)[C@@H](C)O)C(C)C)C(C)C` [MELITTIN], the MIC against Escherichia coli and against Staphylococcus aureus was 4 µg/mL (≈ 1.41 µM) throughout.

The values are drawn from ChEMBL document CHEMBL6115036, “Exploration of membrane-active cephalosporin derivatives as potent antibacterial agents against Staphylococcus aureus biofilms and persisters” (Eur J Med Chem, 2025).
